Source: patent US10662241B1, “HER3 antigen-binding molecules” (Hummingbird Bioscience Holdings Pte. Ltd., priority 2019, dated 2020)

Legend:
N87 cells [1] = experiment: Antibody internalisation, pHrodo imaging, N87; assay type: cell-based; settings: 120 nM, 24 hours
N87 cells [2] = experiment: Antibody internalisation by flow cytometry; assay type: cell-based; settings: N87, 0 min to 4.5 hour

Substance: trastuzumab: anti-HER2 antibody trastuzumab [reference compound]
- Internalisation (N87 cells [1]): modest internalization
- Internalisation (N87 cells [2]): substantial internalisation
